Results reported in patent publication US20260384451A1, “6-ARYL IMIDAZO[2,1-B]THI/OpXAZOLE-2-CARBOXILIC ACID DERIVATIVE AND PHARMACEUTICAL COMPOSITION FOR TREATING ALZHEIMER'S DISEASE CONTAINING SAME AS ACTIVE INGREDIENT” (published 2026).
Read-outs that look alike come from different tables or passages of the source.

By UniProt entry, the sequences of proteins in these tests, tags left out.
UniProt P53779, whole entry: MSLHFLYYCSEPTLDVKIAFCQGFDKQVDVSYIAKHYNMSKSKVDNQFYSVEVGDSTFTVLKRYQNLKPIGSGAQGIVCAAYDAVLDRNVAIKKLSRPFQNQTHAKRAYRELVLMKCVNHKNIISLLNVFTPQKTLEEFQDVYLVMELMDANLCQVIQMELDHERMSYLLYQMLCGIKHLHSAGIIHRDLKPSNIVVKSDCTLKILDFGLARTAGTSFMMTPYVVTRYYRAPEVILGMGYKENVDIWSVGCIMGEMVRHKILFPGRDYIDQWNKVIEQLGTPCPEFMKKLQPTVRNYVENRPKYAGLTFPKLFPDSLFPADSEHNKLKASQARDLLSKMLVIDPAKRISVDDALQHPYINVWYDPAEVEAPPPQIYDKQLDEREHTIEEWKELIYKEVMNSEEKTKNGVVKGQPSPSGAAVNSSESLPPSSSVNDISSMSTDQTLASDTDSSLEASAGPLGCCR
UniProt P45984, whole entry: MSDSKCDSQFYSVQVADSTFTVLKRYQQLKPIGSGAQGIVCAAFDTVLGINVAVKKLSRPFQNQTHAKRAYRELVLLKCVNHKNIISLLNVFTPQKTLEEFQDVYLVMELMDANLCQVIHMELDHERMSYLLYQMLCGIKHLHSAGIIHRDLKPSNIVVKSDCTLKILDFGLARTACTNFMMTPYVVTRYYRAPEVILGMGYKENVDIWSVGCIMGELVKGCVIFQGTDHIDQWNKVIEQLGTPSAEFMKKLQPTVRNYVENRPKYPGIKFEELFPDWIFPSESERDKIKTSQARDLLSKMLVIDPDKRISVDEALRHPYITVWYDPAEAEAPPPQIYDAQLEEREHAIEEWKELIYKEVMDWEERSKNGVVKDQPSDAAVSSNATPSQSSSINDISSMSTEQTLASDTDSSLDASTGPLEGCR
UniProt P45983, whole entry: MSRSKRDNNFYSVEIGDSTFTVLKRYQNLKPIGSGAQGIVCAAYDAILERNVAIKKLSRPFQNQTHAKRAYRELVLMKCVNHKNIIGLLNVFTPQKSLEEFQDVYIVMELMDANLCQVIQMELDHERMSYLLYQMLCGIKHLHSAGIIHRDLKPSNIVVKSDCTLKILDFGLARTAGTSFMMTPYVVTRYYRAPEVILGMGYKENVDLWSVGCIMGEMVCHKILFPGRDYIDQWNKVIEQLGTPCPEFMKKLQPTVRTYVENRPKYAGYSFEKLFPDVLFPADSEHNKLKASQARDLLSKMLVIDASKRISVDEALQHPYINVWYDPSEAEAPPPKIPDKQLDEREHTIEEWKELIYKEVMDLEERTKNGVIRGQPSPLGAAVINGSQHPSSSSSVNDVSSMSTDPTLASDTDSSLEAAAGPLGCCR
UniProt Q16539, whole entry: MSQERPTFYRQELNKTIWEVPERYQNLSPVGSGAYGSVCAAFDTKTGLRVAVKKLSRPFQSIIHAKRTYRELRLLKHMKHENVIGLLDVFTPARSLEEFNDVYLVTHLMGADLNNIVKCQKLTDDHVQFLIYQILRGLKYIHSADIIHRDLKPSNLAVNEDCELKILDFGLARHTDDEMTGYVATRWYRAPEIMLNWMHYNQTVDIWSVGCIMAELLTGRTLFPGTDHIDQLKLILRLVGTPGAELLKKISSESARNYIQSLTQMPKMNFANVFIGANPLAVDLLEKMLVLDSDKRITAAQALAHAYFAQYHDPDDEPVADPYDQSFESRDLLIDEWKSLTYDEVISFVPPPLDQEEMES

Legend:
JNK3 = JNK3 (Homo sapiens, UniProt P53779); assay: In vitro JNK3 inhibitory activity assay
JNK2 = JNK2 (Homo sapiens, UniProt P45984); assay: Activity of major compounds against JNK1/2/p38α: JNK2 (selectivity versus JNK3); details: ratio of IC50 JNK2/JNK3
JNK1 = JNK1 (Homo sapiens, UniProt P45983); assay: Activity of major compounds against JNK1/2/p38α: JNK1 (selectivity versus JNK3); details: ratio of IC50 JNK1/JNK3
p38α = p38α (Homo sapiens, UniProt Q16539); assay: Activity of major compounds against JNK1/2/p38α: p38α (selectivity versus JNK3); details: ratio of IC50 p38α/JNK3
[1] = read-out: JNK3, Table 8, class symbols
[2] = read-out: JNK3 inhibitory activity (IC50), Table 2, imidazo[2,1-b]thiazole derivatives, class symbols
[3] = read-out: JNK3 inhibitory activity (IC50), Table 1, imidazo[2,1-b]thiazole derivatives, class symbols
[4] = read-out: JNK3 inhibitory activity (IC50), Table 5, imidazo[2,1-b]oxazole derivatives, class symbols
[5] = read-out: JNK3 inhibitory activity (IC50), Table 3, imidazo[2,1-b]oxazole derivatives, class symbols
[6] = read-out: JNK3 inhibitory activity (IC50), Table 6, imidazo[2,1-b]thiazole-based covalent inhibitors, class symbols

Q: How did the IC50 (JNK3; [1]) turn out when `CNC(=O)c1cn2c(-c3ccnc(N[C@@H]4CCCN(C(=O)C5CC5)C4)n3)c(-c3ccc4ccccc4c3)nc2s1` was run?
A: Its IC50 is 1 to 30 nM.

Q: What about the “Selectivity (IC50 fold) JNK2/JNK3” value (JNK2) of the same compound?
A: Its value is 7 fold.

Q: What about the “Selectivity (IC50 fold) JNK1/JNK3” value (JNK1) of the same compound?
A: Its value is 64 fold.

Q: Which results are given for `CCOC(=O)c1cn2c(-c3ccnc(NC4CCOCC4)n3)c(-c3ccc4ccccc4c3)nc2s1`?
A: IC50 (JNK3; [1]): < 1 nM; IC50 (JNK3; [2]): < 1 nM; Selectivity (IC50 fold) JNK2/JNK3 (JNK2): 77 fold; Selectivity (IC50 fold) JNK1/JNK3 (JNK1): 1741 fold; Selectivity (IC50 fold) p38α/JNK3 (p38α): 916 fold

Q: What does the source list for `NC(=O)c1cn2c(-c3ccnc(N[C@@H]4CCCN(C(=O)C5CC5)C4)n3)c(-c3ccc4ccccc4c3)nc2s1`?
A: IC50 (JNK3; [1]): 1 to 30 nM; Selectivity (IC50 fold) JNK2/JNK3 (JNK2): 3 fold; Selectivity (IC50 fold) JNK1/JNK3 (JNK1): 20 fold

Q: Which results are given for `CNC(=O)c1cn2c(-c3ccnc(N[C@@H]4CCCN(C(=O)N(C)C)C4)n3)c(-c3ccc4ccccc4c3)nc2s1`?
A: IC50 (JNK3; [1]): 1 to 30 nM; IC50 (JNK3; [3]): 1 to 30 nM; Selectivity (IC50 fold) JNK2/JNK3 (JNK2): 2 fold; Selectivity (IC50 fold) JNK1/JNK3 (JNK1): 11 fold; Selectivity (IC50 fold) p38α/JNK3 (p38α): 41 fold

Q: With `CNC(=O)c1cn2c(-c3ccnc(N[C@@H]4CCCN(C(=O)N(C)C)C4)n3)c(-c3ccc(Cl)c(Cl)c3)nc2o1` as the compound, how does the IC50 (JNK3; [1]) read?
A: The IC50 was less than 1 nM.

Q: And the “Selectivity (IC50 fold) JNK2/JNK3” value (JNK2)?
A: The value was 67 fold.

Q: What about the “Selectivity (IC50 fold) JNK1/JNK3” value (JNK1) of the same compound?
A: Its value is 96 fold.

Q: And the “Selectivity (IC50 fold) p38α/JNK3” value (p38α)?
A: The value was 964 fold.

Q: `CCOC(=O)c1cn2c(-c3ccnc(NC4CCOCC4)n3)c(-c3ccc(Cl)c(Cl)c3)nc2s1` was tested. Which IC50 (JNK3; [1]) did it give?
A: The IC50 was less than 1 nM.

Q: And the IC50 (JNK3; [2])?
A: Its IC50 is less than 1 nM.

Q: And the “Selectivity (IC50 fold) JNK2/JNK3” value (JNK2)?
A: Its value is 1 fold.

Q: And the “Selectivity (IC50 fold) JNK1/JNK3” value (JNK1)?
A: Its value is 124 fold.

Q: What about the “Selectivity (IC50 fold) p38α/JNK3” value (p38α) of the same compound?
A: Its value is 22 fold.

Q: `CNC(=O)c1cn2c(-c3ccnc(NC4CCCCC4)n3)c(-c3ccc4ccccc4c3)nc2o1` was tested. Which IC50 (JNK3; [1]) did it give?
A: The IC50 was less than 1 nM.

Q: And the IC50 (JNK3; [4])?
A: Its IC50 is less than 1 nM.

Q: And the “Selectivity (IC50 fold) JNK2/JNK3” value (JNK2)?
A: Its value is 12 fold.

Q: And the “Selectivity (IC50 fold) JNK1/JNK3” value (JNK1)?
A: The value was 52 fold.

Q: What about the “Selectivity (IC50 fold) p38α/JNK3” value (p38α) of the same compound?
A: Its value is 1063 fold.

Q: Which results are given for `CCOC(=O)c1cn2c(-c3ccnc(N[C@@H]4CCCN(C(=O)N(C)C)C4)n3)c(-c3ccc4ccccc4c3)nc2s1`?
A: IC50 (JNK3; [1]): 1 to 30 nM; IC50 (JNK3; [3]): 1 to 30 nM; Selectivity (IC50 fold) JNK2/JNK3 (JNK2): 2 fold; Selectivity (IC50 fold) JNK1/JNK3 (JNK1): 29 fold

Q: Which results are given for `NC(=O)c1cn2c(-c3ccnc(N[C@@H]4CCCN(C(=O)C5CC5)C4)n3)c(-c3ccc(Cl)c(Cl)c3)nc2o1`?
A: IC50 (JNK3; [1]): < 1 nM; IC50 (JNK3; [5]): < 1 nM; Selectivity (IC50 fold) JNK2/JNK3 (JNK2): 56 fold; Selectivity (IC50 fold) JNK1/JNK3 (JNK1): 557 fold; Selectivity (IC50 fold) p38α/JNK3 (p38α): 1316 fold

Q: `CNC(=O)c1cn2c(-c3ccnc(N[C@@H]4CCCN(C(=O)N(C)C)C4)n3)c(-c3ccc4c(c3)OCCO4)nc2s1` was tested. Which IC50 (JNK3; [1]) did it give?
A: The IC50 was 1 to 30 nM.

Q: And the IC50 (JNK3; [3])?
A: Its IC50 is less than 1 nM.

Q: And the “Selectivity (IC50 fold) JNK2/JNK3” value (JNK2)?
A: The value was 13 fold.

Q: And the “Selectivity (IC50 fold) JNK1/JNK3” value (JNK1)?
A: The value was 109 fold.

Q: What about the “Selectivity (IC50 fold) p38α/JNK3” value (p38α) of the same compound?
A: Its value is 19 fold.

Q: For `CCOC(=O)c1cn2c(-c3ccnc(N[C@@H]4CCCN(C(=O)N(C)C)C4)n3)c(-c3ccc(Cl)c(Cl)c3)nc2s1`, which IC50 (JNK3; [1]) is on record?
A: Its IC50 is less than 1 nM.

Q: And the IC50 (JNK3; [3])?
A: The IC50 was less than 1 nM.

Q: And the “Selectivity (IC50 fold) JNK2/JNK3” value (JNK2)?
A: Its value is 79 fold.

Q: What about the “Selectivity (IC50 fold) JNK1/JNK3” value (JNK1) of the same compound?
A: The value was 638 fold.

Q: What about the “Selectivity (IC50 fold) p38α/JNK3” value (p38α) of the same compound?
A: Its value is 164 fold.

Q: How did the IC50 (JNK3; [1]) turn out when `CCOC(=O)c1cn2c(-c3ccnc(N[C@@H]4CCCN(C(=O)C5CC5)C4)n3)c(-c3ccc4ccccc4c3)nc2s1` was run?
A: Its IC50 is 1 to 30 nM.

Q: And the IC50 (JNK3; [3])?
A: The IC50 was 1 to 30 nM.

Q: What about the “Selectivity (IC50 fold) JNK2/JNK3” value (JNK2) of the same compound?
A: Its value is 10 fold.

Q: What about the “Selectivity (IC50 fold) JNK1/JNK3” value (JNK1) of the same compound?
A: Its value is 100 fold.

Q: Which IC50 (JNK3; [6]) does the source give for `C=CC(=O)c1cn2c(-c3ccnc(NC4CCCCC4)n3)c(-c3ccc4ccccc4c3)nc2s1` here?
A: The IC50 was 1 to 30 nM.

Q: `CN(C)C(=O)N1CCC[C@@H](Nc2nccc(-c3c(-c4ccc(F)c(C(F)(F)F)c4)nc4sc(C(N)=O)cn34)n2)C1` was tested. Which IC50 (JNK3; [3]) did it give?
A: Its IC50 is 1 to 30 nM.

Q: How did the IC50 (JNK3; [6]) turn out when `C=CC(=O)Nc1cn2c(-c3ccnc(NC4CCOCC4)n3)c(-c3ccc(Cl)c(Cl)c3)nc2s1` was run?
A: The IC50 was less than 1 nM.

Q: Which IC50 (JNK3; [3]) does the source give for `CCOC(=O)c1cn2c(-c3ccnc(N[C@H]4CCCN(C(=O)C5CC5)C4)n3)c(-c3ccc(F)c(C(F)(F)F)c3)nc2s1` here?
A: Its IC50 is 30 to 1000 nM.

Q: For `CCOC(=O)c1cn2c(-c3ccnc(NC4CCOCC4)n3)c(-c3ccc(Cl)c(Cl)c3)nc2o1`, which IC50 (JNK3; [4]) is on record?
A: Its IC50 is less than 1 nM.

Q: With `NC(=O)c1cn2c(-c3ccnc(N[C@@H]4CCCN(C(=O)C5CC5)C4)n3)c(-c3ccc4c(c3)OCCO4)nc2o1` as the compound, how does the IC50 (JNK3; [5]) read?
A: The IC50 was less than 1 nM.

Q: How did the IC50 (JNK3; [3]) turn out when `CCOC(=O)c1cn2c(-c3ccnc(N[C@@H]4CCCN(C(=O)C5CC5)C4)n3)c(-c3ccc4c(c3)OCCO4)nc2s1` was run?
A: The IC50 was 1 to 30 nM.

Q: With `CNC(=O)c1cn2c(-c3ccnc(N[C@@H]4CCCN(C(=O)C5CC5)C4)n3)c(-c3ccc(F)c(Cl)c3)nc2o1` as the compound, how does the IC50 (JNK3; [5]) read?
A: The IC50 was less than 1 nM.

Q: With `CNC(=O)c1cn2c(-c3ccnc(N[C@H]4CCN(C(=O)C5CC5)C4)n3)c(-c3ccc4ccccc4c3)nc2o1` as the compound, how does the IC50 (JNK3; [5]) read?
A: Its IC50 is 1000 to 10000 nM.

Q: For `CN(C)C(=O)N1CCC[C@H](Nc2nccc(-c3c(-c4ccc(Cl)c(Cl)c4)nc4oc(C(N)=O)cn34)n2)C1`, which IC50 (JNK3; [5]) is on record?
A: The IC50 was less than 1 nM.

Q: Which IC50 (JNK3; [5]) does the source give for `CNC(=O)c1cn2c(-c3ccnc(N[C@@H]4CCCN(C(=O)C5CC5)C4)n3)c(-c3ccc4ccccc4c3)nc2o1` here?
A: The IC50 was less than 1 nM.

Q: For `C#CCNC(=O)c1cn2c(-c3ccnc(NC4CCOCC4)n3)c(-c3ccc(Cl)c(Cl)c3)nc2o1`, which IC50 (JNK3; read-out: JNK3 inhibitory activity (IC50), Table 7, imidazo[2,1-b]oxazole-based covalent inhibitors, class symbols) is on record?
A: Its IC50 is 1 to 30 nM.

Q: For `NC(=O)c1cn2c(-c3ccnc(NC4CCOCC4)n3)c(-c3ccc4c(c3)OCCO4)nc2o1`, which IC50 (JNK3; [4]) is on record?
A: The IC50 was 1 to 30 nM.

Q: How did the IC50 (JNK3; [5]) turn out when `CCOC(=O)c1cn2c(-c3ccnc(N[C@@H]4CCCN(C(=O)C5CC5)C4)n3)c(-c3ccc(F)c(Cl)c3)nc2o1` was run?
A: Its IC50 is 1 to 30 nM.

Q: Which IC50 (JNK3; [5]) does the source give for `CCOC(=O)c1cn2c(-c3ccnc(N[C@H]4CCN(C(=O)C5CC5)C4)n3)c(-c3ccc4ccccc4c3)nc2o1` here?
A: Its IC50 is greater than 10000 nM.

Q: With `CCOC(=O)c1cn2c(-c3ccnc(N[C@H]4CCCN(C(=O)N(C)C)C4)n3)c(-c3ccc4ccccc4c3)nc2s1` as the compound, how does the IC50 (JNK3; [3]) read?
A: The IC50 was 30 to 1000 nM.
